Results published in paper PMC3897212 (Journal of pharmacokinetics and pharmacodynamics, 2013).
Read-outs that look alike come from different tables or passages of the source. Marks after values point to notes of the source that are not given here.

Tests used:
[1] = human plasma, cited from earlier work
[2] = Time course tissue distribution / pharmacokinetic study in mice; format: in vivo, female FVB mice; conditions: for AUC(0-t): 60 mg/kg; for CL: mouse plasma, observed

half-life ([2]; female, FVB, mouse, brain, po, 30 mg/kg): 3.7 h
AUC(0-t) ([2]; female, FVB, mouse, liver, po): 157 µM·h
AUC(0-t) ([2]; female, FVB, mouse, lung, po): 234 µM·h
CL ([2]; 30 mg/kg p.o.): 0.09 L/h
CL ([2]; 60 mg/kg p.o.): 0.09 L/h
CL ([2]; 90 mg/kg p.o.): 0.06 L/h
Structure (SMILES): CS(=O)(=O)CCNCc1ccc(-c2ccc3ncnc(Nc4ccc(OCc5cccc(F)c5)c(Cl)c4)c3c2)o1 [lapatinib, N-{3-chloro-4-[(3-fluorobenzyl)oxy]phenyl}-6-[5-({[2-(methylsulfonyl)ethyl]amino}methyl)-2-furyl]-4-quinazolinamine]
Observed t1/2 ([1]; 25 mg multiple dose, healthy, fasted, geometric mean): 7.9 ^a (6.4–9.8) h
Observed t1/2 ([1]; 50 mg single dose, healthy, fasted, geometric mean): 6.0 ^a (4.8–7.5) h
Observed t1/2 ([1]; 100 mg single dose, healthy, fasted, geometric mean): 6.3 ^a (5.6–7.0) h
Observed AUC∞ ([1]; 100 mg single dose, healthy, not fasted, geometric mean (range)): 2,459 (2,062–2,933) ^b nM × h
Observed t1/2 ([1]; 100 mg single dose, healthy, not fasted, geometric mean): 9.6 ^a (8.5–10.7) h
Observed AUCτ ([1]; 175 mg multiple dose, cancer, fasted, geometric mean): 9,431 nM × h
Observed t1/2 ([1]; 175 mg single dose, healthy, fasted, geometric mean): 8.2 ^a (6.7–9.9) h
Observed t1/2 ([1]; 250 mg single dose, healthy, fasted, geometric mean): 8.8 ^a (6.6–11.7) h
Observed t1/2 ([1]; 250 mg single dose, healthy, not fasted, geometric mean): 10.2 ^a (9.24–11.3) h
Observed AUCτ ([1]; 375 mg multiple dose, cancer, fasted, geometric mean): 9,878 nM × h
Observed AUCτ ([1]; 675 mg multiple dose, cancer, fasted, geometric mean): 23,578 nM × h
Observed AUCτ ([1]; 900 mg multiple dose, cancer, fasted, geometric mean): 21,857 nM × h
Observed t1/2 ([1]; 900 mg multiple dose, cancer, fasted, median): 23.1 ^b (9.8–38.2) h
Observed t1/2 ([1]; 900 mg single dose, cancer, fasted, median): 12.9 ^b (10.1–18.3) h
Observed AUCτ ([1]; 1,200 mg multiple dose, cancer, fasted, geometric mean): 29,773 nM × h
Observed AUCτ ([1]; 1,250 mg multiple dose, cancer, not fasted, mean (90 % CI)): 62,300 (40,271–96,376) ^a nM × h
Observed AUCτ ([1]; 1,600 mg multiple dose, cancer, fasted, geometric mean): 39,067 ^b nM × h
Observed t1/2 ([1]; 1,600 mg multiple dose, cancer, fasted, median (95 % CI)): 26.2 (12.9–48.3) h
Observed t1/2 ([1]; 1,600 mg single dose, cancer, fasted, median): 13.9 ^b (9.6–18.0) h
Observed AUCτ ([1]; 1,800 mg multiple dose, cancer, fasted, geometric mean): 47,671 ^b nM × h
Observed t1/2 ([1]; 1,800 mg multiple dose, cancer, fasted, median (95 % CI)): 21.8 (18.5–104.5) h
Cmax ([1]; read-out: Observed Cmax, 100 mg single dose, healthy, not fasted, geometric mean (range)): 198 nM
